The chains behind the UniProt entries cited, without tags or fusion partners.
UniProt Q8PWY1, whole entry E444G: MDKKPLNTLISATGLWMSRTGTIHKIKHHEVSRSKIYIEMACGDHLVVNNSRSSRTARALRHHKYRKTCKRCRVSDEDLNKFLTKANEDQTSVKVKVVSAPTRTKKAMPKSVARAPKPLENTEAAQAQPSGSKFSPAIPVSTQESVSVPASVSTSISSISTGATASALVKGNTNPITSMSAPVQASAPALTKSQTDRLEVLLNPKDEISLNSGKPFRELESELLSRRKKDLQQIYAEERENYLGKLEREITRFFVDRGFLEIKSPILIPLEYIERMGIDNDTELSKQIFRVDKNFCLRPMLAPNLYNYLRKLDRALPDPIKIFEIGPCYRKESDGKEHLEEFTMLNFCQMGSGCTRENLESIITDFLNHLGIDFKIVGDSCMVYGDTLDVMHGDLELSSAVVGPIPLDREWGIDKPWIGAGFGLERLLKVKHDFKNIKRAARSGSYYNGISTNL

According to patent US9133449B2, “Mutant pyrrolysyl-tRNA synthetase, and method for production of protein having non-natural amino acid integrated therein by using the same” (priority 2007, dated 2015):

Molecular target: M. mazei PylRS (wild-type) (Methanosarcina mazei, UniProt Q8PWY1)
Experiment: Aminoacylation assay of amino acids with wild-type PylRS (acid-urea PAGE)
Assay type: biochemical
Conditions: 37 degrees Celsius 1 h; 0.5 M Lys; 100 mM Ac-Lys; 1 mM Boc-Lys; 1 mM Aloc-Lys; 10 mM Nic-Lys; 7 mM Nma-Lys; 3.5 mM Z-Lys; 1 mM pyrrolysine

| Molecule | activation of amino acid / esterification of tRNA^Pyl by wild-type PylRS |
| --- | --- |
| NCCCC[C@H](N)C(=O)O | cannot activate |
| NE-nicotinoyl-L-lysine | esterified |
